Data published in ChEMBL document CHEMBL3232801, “Oxidative stress in Alzheimer's disease: are we connecting the dots?” (J Med Chem, 2014).

Amino acid sequences for entries named in this document (tags omitted). A change or cut given only in a name is not applied to a line headed by its entry.
UniProt P22303: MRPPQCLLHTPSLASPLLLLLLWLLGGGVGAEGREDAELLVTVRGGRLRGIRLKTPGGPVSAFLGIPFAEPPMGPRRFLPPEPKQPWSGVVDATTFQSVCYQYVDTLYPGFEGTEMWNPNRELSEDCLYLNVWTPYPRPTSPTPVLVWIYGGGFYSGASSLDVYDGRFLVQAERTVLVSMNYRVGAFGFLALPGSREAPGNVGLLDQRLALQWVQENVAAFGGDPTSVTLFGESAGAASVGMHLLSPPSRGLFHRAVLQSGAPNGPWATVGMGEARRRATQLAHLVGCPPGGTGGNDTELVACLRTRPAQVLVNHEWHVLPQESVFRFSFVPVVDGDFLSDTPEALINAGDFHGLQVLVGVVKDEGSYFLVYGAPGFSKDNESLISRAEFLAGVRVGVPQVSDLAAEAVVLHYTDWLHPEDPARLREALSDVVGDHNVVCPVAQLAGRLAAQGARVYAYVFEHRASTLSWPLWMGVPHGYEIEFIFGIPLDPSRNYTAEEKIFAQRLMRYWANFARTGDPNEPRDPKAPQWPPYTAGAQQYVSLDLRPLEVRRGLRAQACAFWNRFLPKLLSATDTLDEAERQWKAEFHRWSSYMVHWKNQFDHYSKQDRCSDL

Biological target: Acetylcholinesterase (Homo sapiens, UniProt P22303)
Assay: Inhibition of AChE (unknown origin)-mediated amyloid beta aggregation at 100 uM

COc1cc(/C=C/C(=O)NCCCCCCNc2c3c(nc4ccccc24)CCCC3)ccc1O
inhibition: 50.3%
